## Apparent affinities of Ab-14 variants for a coronavirus HR2 peptide

Data: MIT Lincoln Laboratory AlphaSeq set, Engelhart et al. 2022, doi:10.1038/s41597-022-01779-4, as distributed in FLAb.

All variants were tested on one target, the spike HR2 peptide PDVDLGDISGINAS (SARS-CoV-2).

Parent: Ab-14, a human scFv built as VH, a (GGGGS)3 linker, VL. Only the CDRs of the light chain vary.
VH: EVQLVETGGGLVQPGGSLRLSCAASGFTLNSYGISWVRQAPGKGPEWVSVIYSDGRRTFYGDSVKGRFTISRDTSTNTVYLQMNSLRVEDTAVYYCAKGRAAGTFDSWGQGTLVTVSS
VL: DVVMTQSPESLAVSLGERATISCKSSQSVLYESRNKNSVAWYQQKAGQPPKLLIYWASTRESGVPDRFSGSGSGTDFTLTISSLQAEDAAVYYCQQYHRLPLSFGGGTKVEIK

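Phage display of a naive human antibody library on the peptide gave the parent. Variants in AAYL50 differ from the parent at up to three CDR positions; double and triple changes were sampled at random. AlphaSeq pools MATa yeast showing the antibodies with MATalpha yeast showing the peptide. Mating (16 h, 30 °C) was followed by selection of diploids and sequencing of their barcodes. The ratio of observed to expected reads was calibrated, replicate by replicate, on BCL2-family standards whose Kd was known from biolayer interferometry. There are three technical replicates.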

The parent's light chain CDRs are KSSQSVLYESRNKNSVA, WASTRES, QQYHRLPLS; each variant's own CDRs replace them letter for letter.
All variants listed here change W56 of the VL, counted from its first residue.
Kd is apparent (estimated from mating counts) and averaged on the log scale over replicates with a signal. Smaller is tighter.
"not detected" means that the variant was in the library but no mating with the target was seen in any replicate; the authors take this as a sign of poor binding, and no number exists.

CDR-L1,CDR-L2,CDR-L3,Kd (apparent),seen in,control signals
KSSQSVLYESRNKNLVE,DASTRES,QQYHRLPLS,not detected,0 of 3,0 of 9
KSSQSVLSESRNKNSSA,CASTRES,QQYHRLPLS,21 µM,1 of 3,4 of 9
KSSQSVLYESRNKNSVA,GASTRES,QLYHRMPLS,2.0 nM,3 of 3,2 of 9
KSSQSLLYESRNKNSVA,LLSTRES,QQYHRLPLS,390 nM,2 of 3,0 of 9
KSSQSVLYESANKNSVA,SASTRES,GQYHRLPLS,16 nM,3 of 3,8 of 9
KSSQSVLYESRNKNSVA,LASHRES,QQYHRLPLS,71 nM,3 of 3,6 of 9
KSSQSVIYESRNNNSVA,KASTRES,QQYHRLPLS,2.0 nM,3 of 3,4 of 9
KSSQSVLYESRNKNSVA,YNSTRES,QQYHLLPLS,6.8 µM,2 of 3,1 of 9
KSSQSVLCESRNKNSVA,HASTRES,QQYHRLFLS,not detected,0 of 3,0 of 9
KSMQSVKYESRNKNSVA,VASTRES,QQYHRLPLS,39 µM,1 of 3,0 of 9
KSSQSVLYESRNKNSVA,GASTRES,QQYHHLPCS,39 µM,3 of 3,1 of 9
KSSQSVLYESRTKNSVA,IASTRES,CQYHRLPLS,not detected,0 of 3,0 of 9
KSSQKVLYESRNKNSVA,IASTRES,QQYGRLPLS,not detected,0 of 3,1 of 9
KSSQSVLYEIRNKNSEA,YASTRES,QQYHRLPLS,not detected,0 of 3,3 of 9
KLSQSVLYESRNKNSVA,GASTHES,QQYHRLPLS,540 pM,3 of 3,7 of 9
KSSQSVLYESSNKNSVA,DASTRES,QQYWRLPLS,1.0 nM,3 of 3,0 of 9
KSSQSILYESDNKNSVA,FASTRES,QQYHRLPLS,6.9 nM,3 of 3,4 of 9
KSSQSVLYECRNKNSVA,YASTRES,QQYHRAPLS,not detected,0 of 3,2 of 9
KSRQSVLYESRNKNSVA,YASTRES,QLYHRLPLS,380 nM,3 of 3,0 of 9
KSSQSVLYESRNKNSVA,FASTRES,QQYHWLPLS,1.6 µM,3 of 3,0 of 9
KSSQNVLYESRNKNSVA,GASTRES,QQYVRLPLS,450 pM,3 of 3,0 of 9
KSSQSVLYESRNKRSVA,KASTRES,QQLHRLPLS,130 µM,1 of 3,1 of 9
KSSQSVLYESRNKNSVA,PASTRES,QQYHRLPLS,10 µM,1 of 3,0 of 9
KSSQSVLYESRNKNSVA,MASTEES,QAYHRLPLS,not detected,0 of 3,1 of 9
MSSQSVLYESRNKNSVA,MASTRES,QQYHRLSLS,9.3 µM,2 of 3,3 of 9
KSSQSVLYESRNKNSVD,NASTRES,QQYHPLPLS,1.3 mM,2 of 3,4 of 9
KSSQSVLFESRNKNSVA,YASTRES,QQYHHLPLS,11 µM,1 of 3,1 of 9
KSSQSTLYEARNKNSVA,QASTRES,QQYHRLPLS,670 pM,3 of 3,7 of 9
KSSQSVIYESRNKNSVA,VASTRES,QQYRRLPLS,22 µM,1 of 3,1 of 9
KSSQSVLYESRNKNAVA,QASTRES,QQYHRDPLS,14 µM,1 of 3,0 of 9
KSSQSVLYESRGKNSVA,VASTRES,QQYHRTPLS,26 µM,1 of 3,1 of 9
ESSQSVLYESRNKNSVA,QASTRES,QQYHRQPLS,890 nM,3 of 3,1 of 9
KSSQSVLLASRNKNSVA,LASTRES,QQYHRLPLS,25 nM,3 of 3,1 of 9
KLSQSVLYESRNKNSVA,NASTRES,DQYHRLPLS,840 pM,3 of 3,1 of 9
KSSQSVAYEWRNKNSVA,HASTRES,QQYHRLPLS,3.4 nM,3 of 3,0 of 9
VSSQSVLYESRNKNSYA,CASTRES,QQYHRLPLS,not detected,0 of 3,0 of 9
KSSQSVLYESRNKNSVA,CAPTRES,QQYHRVPLS,8.3 µM,2 of 3,1 of 9
MSSQSVLYESRNKNPVA,LASTRES,QQYHRLPLS,24 µM,2 of 3,4 of 9
KSSQNVLYESRNKNSVA,EAWTRES,QQYHRLPLS,13 µM,1 of 3,0 of 9
RSSQSVLYESRNKNSVA,EASTCES,QQYHRLPLS,3.1 nM,3 of 3,1 of 9
ISSQSVLYFSRNKNSVA,NASTRES,QQYHRLPLS,1.4 nM,3 of 3,1 of 9
KSSQSVLYESRRKNSVA,KARTRES,QQYHRLPLS,not detected,0 of 3,0 of 9
KSSQKVLYESRNKNSVA,NASTRES,QQYHRLPLI,1.4 nM,3 of 3,2 of 9
KSSQSKLYESRNKNSGA,YASTRES,QQYHRLPLS,not detected,0 of 3,0 of 9
KSSQSVLYESRNKNSVA,AASTRTS,QQYHRTPLS,5.3 µM,1 of 3,1 of 9
KSSQSVLYESRNKNSVA,EASTRES,QYYHRLPLW,1.5 nM,3 of 3,6 of 9
KSSQSVLCESRNKNSVA,GASTRES,SQYHRLPLS,62 nM,3 of 3,2 of 9
KSSQSVLYESRNKNSVA,AASTRES,HQYHRCPLS,59 µM,2 of 3,1 of 9
KSSQSVLYESRNKNSVA,SASTRTS,QQYHRFPLS,870 pM,3 of 3,0 of 9
KSSQSVYYESRNKNSVA,YASTRES,QQYHKLPLS,8.8 nM,3 of 3,2 of 9
KSSQSVLYESRNKNSVA,YASTRES,QQYHILPLS,10 nM,3 of 3,3 of 9
KSSQSVLYESRNKNSVA,VASTRES,SQYHRLPLS,6.7 µM,2 of 3,0 of 9
KSSQSVLYESRNKNSVA,SYSTRES,DQYHRLPLS,not detected,0 of 3,0 of 9
KSSDSVLYESRNKNIVA,KASTRES,QQYHRLPLS,1.1 nM,3 of 3,2 of 9
KSSQQVLYEMRNKNSVA,HASTRES,QQYHRLPLS,1.4 nM,3 of 3,4 of 9
KSSQSVLYESRNKNSVA,TATTRES,QQCHRLPLS,16 nM,3 of 3,6 of 9
KSSQSVLYESRNKYSVA,MASTRES,QQYHRLPKS,130 nM,3 of 3,3 of 9
KSSQSVLYESRNKNSVA,KASIRES,QQYIRLPLS,940 pM,3 of 3,3 of 9
KSSQSVLYEFMNKNSVA,EASTRES,QQYHRLPLS,not detected,0 of 3,0 of 9
KSSDSVLYESCNKNSVA,TASTRES,QQYHRLPLS,not detected,0 of 3,0 of 9
KLSQSVLYESRNKNSVA,RASTRES,QQGHRLPLS,3.4 nM,3 of 3,5 of 9
ISSQSVLYESRNKNSVA,LASTRES,QQYHYLPLS,21 µM,1 of 3,0 of 9
KSSESVLYESRNKNSLA,CASTRES,QQYHRLPLS,1.0 µM,3 of 3,4 of 9
KSRQSVLYESRNKNSVA,TASTRES,QQYHRLPGS,260 nM,3 of 3,4 of 9
KSSQSVLYESRNKYSVA,TASTRYS,QQYHRLPLS,44 µM,1 of 3,1 of 9
KSSQSVLYESRNKNSVV,KASTRES,QQYHRWPLS,not detected,0 of 3,0 of 9
KSSQSVLYESRNPNSVA,GASTRES,QPYHRLPLS,26 nM,3 of 3,4 of 9
KSSQSVLYEPRNKNSVA,CASTRES,QQYHRLPLS,14 nM,3 of 3,4 of 9
KSAQSVLYESGNKNSVA,MASTRES,QQYHRLPLS,3.2 nM,3 of 3,6 of 9
KSSQSVLYESRNKLSVA,NASTRES,QQYHRFPLS,37 nM,3 of 3,1 of 9
KSSQSVLYESDNKNSVA,RASTREI,QQYHRLPLS,920 pM,3 of 3,2 of 9
KSSQSVLYESRNKNSVA,HASTRES,QQYHRLYPS,18 nM,3 of 3,1 of 9
KSSQSVLYESYNKNSVA,RESTRES,QQYHRLPLS,520 µM,2 of 3,3 of 9
KSSQSHLYESRNKNSVA,KASTRES,QQYHRLPLL,4.1 nM,3 of 3,0 of 9
KSSQSVLYESRNKNSVF,KASTRES,QQYHRLPLS,not detected,0 of 3,0 of 9
KSSQSVLYESSNKNSVN,FASTRES,QQYHRLPLS,12 µM,2 of 3,2 of 9
KSSQSVLYESRNKNSVA,KASTRES,QQMHRLRLS,4.7 nM,3 of 3,1 of 9
KLSQSVLYESRNKNSVA,FASTRES,QQYLRLPLS,25 nM,3 of 3,2 of 9

The first 7 variants above that were never detected:

CDR-L1	CDR-L2	CDR-L3	Kd (apparent)	seen in	control signals
KSSQSVLYESRNKNLVE	DASTRES	QQYHRLPLS	not detected	0 of 3	0 of 9
KSSQSVLCESRNKNSVA	HASTRES	QQYHRLFLS	not detected	0 of 3	0 of 9
KSSQSVLYESRTKNSVA	IASTRES	CQYHRLPLS	not detected	0 of 3	0 of 9
KSSQKVLYESRNKNSVA	IASTRES	QQYGRLPLS	not detected	0 of 3	1 of 9
KSSQSVLYEIRNKNSEA	YASTRES	QQYHRLPLS	not detected	0 of 3	3 of 9
KSSQSVLYECRNKNSVA	YASTRES	QQYHRAPLS	not detected	0 of 3	2 of 9
KSSQSVLYESRNKNSVA	MASTEES	QAYHRLPLS	not detected	0 of 3	1 of 9

In this assay the parent's reference entry averaged 4.4 nM; its copy inside this library read 48 nM.
Three control strains display no target. For library AAYL50, 18% of the pairings with them gave a signal, with a median of 15 µM and one signal in twenty below 970 nM, so weak values seen in few replicates may be background. The control count says in how many pairings with the empty strains this scFv gave a signal.